This is an account of results in patent publication US6660846B1, “Vesicular amino acid transporter composition and method” (The Regents of the University of CA, priority 1997, dated 2003).

The structures appear in SMILES notation.

The target in this assay is T1, rVGAT (RUNC-47, rat unc-47 homologue) (Rattus norvegicus, UniProt O35458).
T1 construct: expressed in transfected cells
T1 sequence (O35458 1-525): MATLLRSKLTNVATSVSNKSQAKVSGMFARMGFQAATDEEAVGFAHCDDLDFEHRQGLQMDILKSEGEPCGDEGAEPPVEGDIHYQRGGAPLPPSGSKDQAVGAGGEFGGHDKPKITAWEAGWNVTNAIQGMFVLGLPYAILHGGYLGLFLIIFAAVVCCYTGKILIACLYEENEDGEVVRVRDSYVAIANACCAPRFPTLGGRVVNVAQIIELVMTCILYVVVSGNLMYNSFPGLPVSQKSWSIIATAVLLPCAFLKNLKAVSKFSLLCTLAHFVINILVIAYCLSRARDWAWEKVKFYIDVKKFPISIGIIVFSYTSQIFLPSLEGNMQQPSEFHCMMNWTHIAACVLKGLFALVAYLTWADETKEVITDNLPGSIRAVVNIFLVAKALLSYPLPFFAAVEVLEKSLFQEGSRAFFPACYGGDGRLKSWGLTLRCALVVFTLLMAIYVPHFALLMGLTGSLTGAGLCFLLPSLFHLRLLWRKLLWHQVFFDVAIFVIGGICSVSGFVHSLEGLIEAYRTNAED
The assay can be described thus: 3H-GABA transport assay in vesicles from PC12 cells stably expressing rVGAT (RUNC-47). In kind it is biochemical. Here is the method:
Stable PC12 transformants expressing high levels of the putative transport protein were isolated by screening cell clones with fluorescent-tagged antibodies generated against the rat unc-47 homologue RUNC-47. […] A population of light vesicles was then isolated from two stable transformants and purified by differential centrifugation (Example 7).
Hereafter, the terms RUNC-47 and rVGAT are used interchangeably.
These studies were carried out in the transport assay detailed in Example 8, using synaptic vesicles prepared from transfected PC-12 cells, as described above and detailed in Example 7.
Briefly, vesicles were prepared from PC12 cell clone B1 stably expressing rVGAT and from un-transfected cells.
The rat unc-47 homologue cDNA subcloned into the plasmid expression vector pcDNA3-Amp (InVitrogen; Carlsbad, Calif.) was introduced into PC12 cells by electroporation (Grote, et al., Cell 81, 581-589, 1995). […]
Incubation was performed at 29° C. for varying intervals and the reaction was terminated by rapid filtration (Supor 200, Gelman; AnnArbor, Mich.), followed by immediate washing with 6 ml cold 0.15 M KCl. Background uptake was determined by incubation at 4° C. for 0 minutes. The bound radioactivity was measured by scintillation counting in 2.5 ml Cytoscint (ICN). […]

On to `O=C(O)C1CCCNC1` (centres unmarked) [nipecotic acid], for which the IC50 was determined as 46 mM and the “Inhibition of rVGAT activity (3H-GABA transport), in words” value was “inhibits rVGAT activity only weakly”.
